Assay results as given in paper PMC11488158, “Propofol binds and inhibits skeletal muscle ryanodine receptor 1” (BJA: British Journal of Anaesthesia, 2024).

By UniProt entry, the sequences of proteins in these tests, tags left out. Where a name states a change or a piece, a line headed by the entry shows the natural chain unless it says otherwise.
UniProt P21817: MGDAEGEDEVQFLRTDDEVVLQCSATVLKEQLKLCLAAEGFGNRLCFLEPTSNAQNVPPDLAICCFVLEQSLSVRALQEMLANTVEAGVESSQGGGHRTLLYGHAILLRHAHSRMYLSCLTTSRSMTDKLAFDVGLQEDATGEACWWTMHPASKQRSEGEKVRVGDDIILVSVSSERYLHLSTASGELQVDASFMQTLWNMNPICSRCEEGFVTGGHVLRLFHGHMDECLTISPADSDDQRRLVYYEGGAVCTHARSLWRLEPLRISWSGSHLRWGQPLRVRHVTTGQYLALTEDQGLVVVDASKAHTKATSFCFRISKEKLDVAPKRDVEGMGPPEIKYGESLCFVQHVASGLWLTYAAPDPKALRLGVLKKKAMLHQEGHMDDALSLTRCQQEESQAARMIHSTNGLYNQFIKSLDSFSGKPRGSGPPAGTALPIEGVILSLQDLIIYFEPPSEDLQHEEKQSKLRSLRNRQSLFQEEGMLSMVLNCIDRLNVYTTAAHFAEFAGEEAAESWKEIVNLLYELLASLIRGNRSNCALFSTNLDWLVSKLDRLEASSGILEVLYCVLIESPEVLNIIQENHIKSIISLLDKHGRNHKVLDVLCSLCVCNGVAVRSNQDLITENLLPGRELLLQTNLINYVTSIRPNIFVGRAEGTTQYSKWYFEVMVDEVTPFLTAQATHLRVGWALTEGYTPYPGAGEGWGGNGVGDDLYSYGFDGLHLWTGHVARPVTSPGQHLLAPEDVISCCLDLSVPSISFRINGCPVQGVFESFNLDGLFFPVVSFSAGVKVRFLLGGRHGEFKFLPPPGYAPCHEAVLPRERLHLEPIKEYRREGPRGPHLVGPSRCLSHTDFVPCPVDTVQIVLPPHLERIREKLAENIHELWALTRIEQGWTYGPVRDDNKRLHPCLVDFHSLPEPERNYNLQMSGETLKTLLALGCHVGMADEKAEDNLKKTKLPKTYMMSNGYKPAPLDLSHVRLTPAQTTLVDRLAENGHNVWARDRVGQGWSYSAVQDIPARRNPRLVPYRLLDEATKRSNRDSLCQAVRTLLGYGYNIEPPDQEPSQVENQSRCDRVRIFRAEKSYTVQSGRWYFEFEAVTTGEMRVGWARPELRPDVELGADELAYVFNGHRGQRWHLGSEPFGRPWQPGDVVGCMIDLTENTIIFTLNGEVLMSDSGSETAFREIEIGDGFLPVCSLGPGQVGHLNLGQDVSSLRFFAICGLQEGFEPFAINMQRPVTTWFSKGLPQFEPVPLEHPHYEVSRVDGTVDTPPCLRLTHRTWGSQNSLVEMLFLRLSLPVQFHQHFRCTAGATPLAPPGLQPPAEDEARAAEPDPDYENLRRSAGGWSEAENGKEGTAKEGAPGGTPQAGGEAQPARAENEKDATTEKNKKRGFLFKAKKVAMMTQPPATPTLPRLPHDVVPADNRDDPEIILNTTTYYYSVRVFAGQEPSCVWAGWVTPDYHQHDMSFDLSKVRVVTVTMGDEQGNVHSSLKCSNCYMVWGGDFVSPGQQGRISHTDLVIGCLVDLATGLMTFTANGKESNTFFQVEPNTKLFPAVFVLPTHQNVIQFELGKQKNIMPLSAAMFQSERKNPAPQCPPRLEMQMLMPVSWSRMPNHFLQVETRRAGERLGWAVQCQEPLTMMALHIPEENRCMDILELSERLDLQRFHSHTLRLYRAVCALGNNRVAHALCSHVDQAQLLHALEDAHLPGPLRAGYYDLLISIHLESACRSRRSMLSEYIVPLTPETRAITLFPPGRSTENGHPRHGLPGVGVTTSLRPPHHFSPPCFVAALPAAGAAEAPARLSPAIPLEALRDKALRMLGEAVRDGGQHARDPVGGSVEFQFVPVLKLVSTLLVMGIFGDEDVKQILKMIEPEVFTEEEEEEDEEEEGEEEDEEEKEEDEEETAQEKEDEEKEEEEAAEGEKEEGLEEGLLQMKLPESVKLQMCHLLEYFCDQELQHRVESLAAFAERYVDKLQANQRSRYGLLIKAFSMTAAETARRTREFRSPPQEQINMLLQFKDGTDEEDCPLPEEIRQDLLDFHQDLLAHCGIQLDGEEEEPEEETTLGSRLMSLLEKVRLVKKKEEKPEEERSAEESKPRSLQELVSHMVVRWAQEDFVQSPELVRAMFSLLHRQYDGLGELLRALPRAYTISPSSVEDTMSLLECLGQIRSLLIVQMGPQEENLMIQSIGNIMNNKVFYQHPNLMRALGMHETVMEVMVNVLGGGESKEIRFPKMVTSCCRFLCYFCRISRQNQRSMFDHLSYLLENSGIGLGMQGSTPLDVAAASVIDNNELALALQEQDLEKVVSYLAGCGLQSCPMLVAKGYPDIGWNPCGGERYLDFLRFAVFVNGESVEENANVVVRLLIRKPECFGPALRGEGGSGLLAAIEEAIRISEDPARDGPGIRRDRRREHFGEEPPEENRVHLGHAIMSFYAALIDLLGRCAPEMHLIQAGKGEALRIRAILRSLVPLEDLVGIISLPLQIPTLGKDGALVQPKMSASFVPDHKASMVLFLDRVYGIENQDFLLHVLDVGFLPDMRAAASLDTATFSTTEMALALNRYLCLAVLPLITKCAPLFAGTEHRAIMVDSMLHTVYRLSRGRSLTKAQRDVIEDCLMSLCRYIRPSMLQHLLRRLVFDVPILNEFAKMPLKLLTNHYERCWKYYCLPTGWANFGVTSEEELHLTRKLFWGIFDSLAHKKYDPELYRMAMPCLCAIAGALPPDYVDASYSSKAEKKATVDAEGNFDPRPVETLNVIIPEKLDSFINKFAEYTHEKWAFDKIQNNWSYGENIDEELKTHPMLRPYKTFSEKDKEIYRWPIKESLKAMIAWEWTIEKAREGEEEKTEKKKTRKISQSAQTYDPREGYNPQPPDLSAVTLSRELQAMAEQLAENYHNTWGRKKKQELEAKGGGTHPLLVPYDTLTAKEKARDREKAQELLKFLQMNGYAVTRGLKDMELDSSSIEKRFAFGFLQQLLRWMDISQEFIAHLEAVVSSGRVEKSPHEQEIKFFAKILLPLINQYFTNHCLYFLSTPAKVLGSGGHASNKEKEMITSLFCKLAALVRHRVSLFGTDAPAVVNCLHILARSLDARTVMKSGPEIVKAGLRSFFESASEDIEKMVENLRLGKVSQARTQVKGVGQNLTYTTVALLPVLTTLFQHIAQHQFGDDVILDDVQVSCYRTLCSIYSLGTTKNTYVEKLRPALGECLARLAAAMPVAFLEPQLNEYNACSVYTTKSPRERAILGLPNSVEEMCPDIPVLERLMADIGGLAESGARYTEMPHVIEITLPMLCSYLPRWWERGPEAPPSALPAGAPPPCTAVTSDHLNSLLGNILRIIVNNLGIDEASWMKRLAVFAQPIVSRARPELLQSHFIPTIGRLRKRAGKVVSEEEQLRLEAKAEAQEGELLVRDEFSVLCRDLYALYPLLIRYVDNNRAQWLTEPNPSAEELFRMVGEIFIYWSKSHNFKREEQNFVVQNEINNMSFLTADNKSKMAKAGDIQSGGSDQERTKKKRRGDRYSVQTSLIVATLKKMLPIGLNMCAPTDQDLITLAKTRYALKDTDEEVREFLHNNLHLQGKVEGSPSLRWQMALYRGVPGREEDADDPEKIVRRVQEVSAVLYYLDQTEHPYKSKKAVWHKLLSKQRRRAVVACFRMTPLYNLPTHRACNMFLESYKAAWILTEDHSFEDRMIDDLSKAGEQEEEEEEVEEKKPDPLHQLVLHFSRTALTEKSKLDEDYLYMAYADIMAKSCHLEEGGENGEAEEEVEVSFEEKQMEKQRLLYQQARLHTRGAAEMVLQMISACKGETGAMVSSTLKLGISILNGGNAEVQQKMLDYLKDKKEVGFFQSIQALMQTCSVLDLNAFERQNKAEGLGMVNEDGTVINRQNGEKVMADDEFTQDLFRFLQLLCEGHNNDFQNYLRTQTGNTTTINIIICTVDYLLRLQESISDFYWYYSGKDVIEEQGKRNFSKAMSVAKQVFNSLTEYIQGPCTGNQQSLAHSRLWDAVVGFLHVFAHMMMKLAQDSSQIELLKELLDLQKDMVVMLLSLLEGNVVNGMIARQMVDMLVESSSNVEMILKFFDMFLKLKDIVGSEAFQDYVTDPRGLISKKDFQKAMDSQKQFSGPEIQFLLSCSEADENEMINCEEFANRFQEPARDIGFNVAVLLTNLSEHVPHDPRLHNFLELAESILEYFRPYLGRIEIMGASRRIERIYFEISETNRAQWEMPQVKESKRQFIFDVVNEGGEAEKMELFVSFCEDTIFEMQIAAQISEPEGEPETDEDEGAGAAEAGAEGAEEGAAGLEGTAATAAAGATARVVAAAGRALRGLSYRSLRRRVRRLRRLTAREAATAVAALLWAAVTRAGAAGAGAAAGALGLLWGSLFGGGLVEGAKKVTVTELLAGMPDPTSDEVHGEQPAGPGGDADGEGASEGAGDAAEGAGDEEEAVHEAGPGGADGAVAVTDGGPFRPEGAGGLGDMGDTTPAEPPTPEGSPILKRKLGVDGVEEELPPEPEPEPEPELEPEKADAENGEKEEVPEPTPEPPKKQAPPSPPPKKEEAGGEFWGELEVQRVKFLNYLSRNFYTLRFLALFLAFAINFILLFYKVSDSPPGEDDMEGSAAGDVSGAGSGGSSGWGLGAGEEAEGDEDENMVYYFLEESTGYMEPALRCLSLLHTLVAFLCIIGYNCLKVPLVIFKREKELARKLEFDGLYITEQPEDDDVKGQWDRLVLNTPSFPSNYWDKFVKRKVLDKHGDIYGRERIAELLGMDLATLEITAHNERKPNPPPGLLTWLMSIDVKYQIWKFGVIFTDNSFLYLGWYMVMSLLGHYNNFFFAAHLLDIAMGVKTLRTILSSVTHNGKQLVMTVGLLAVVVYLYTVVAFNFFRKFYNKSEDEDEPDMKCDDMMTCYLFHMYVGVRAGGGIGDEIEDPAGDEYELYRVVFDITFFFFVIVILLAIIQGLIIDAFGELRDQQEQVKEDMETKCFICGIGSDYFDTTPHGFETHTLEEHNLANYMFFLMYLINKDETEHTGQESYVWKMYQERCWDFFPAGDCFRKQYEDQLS

Target: T1, ryanodine receptor 1 (RyR1) (Homo sapiens, UniProt P21817)
T1 construct: wild-type human skeletal myotubes
Assay: Fura-2 Ca2+ imaging, ryanodine concentration response ([…])
Format: cell-based

ryanodine
Fura-2 Ca2+ imaging, ryanodine concentration response (2-1000 nM): ~ 1 μM
